Values quoted from earlier work as cited in paper PMC8819907 (Journal of Experimental & Clinical Cancer Research : CR, 2022).
Read-outs that look alike come from different tables or passages of the source.

Columns and labels:
[1] = tested on: patients with advanced solid tumors; details: cited from earlier work
[2] = tested on: patients with advanced melanoma; details: cited from earlier work; for Anemia / Increased alanine aminotransferase (ALT) / Increased alkaline phosphatase / Increased aspartate aminotransferase (AST): laboratory abnormality
[3] = tested on: patients in clinical trials of trametinib; details: cited from earlier work

With `CC(=O)Nc1cccc(-n2c(=O)n(C3CC3)c(=O)c3c(Nc4ccc(I)cc4F)n(C)c(=O)c(C)c32)c1` [Trametinib, equimolecular combination of acetamide, N-[3-[3-cyclopropyl-5-[(2-fluoro-4-iodophenyl)amino]-3,4,6,7-tetrahydro6,8-dimethyl-2,4,7-trioxopyrido[4,3-d]pyrimidin-1(2H)-yl]phenyl] with 1,1’-sulfinylbis[methane]] as the molecule, how does the “RP2D for single agent” value [1] read?
The value was 2 mg/day.

And the cardiomyopathy ([2]; 14/211 patients)?
Its cardiomyopathy is 7%.

And the Abdominal pain ([2]; All Grades)?
Its Abdominal pain is 13%.

And the Dermatitis acneiform ([2]; All Grades)?
The Dermatitis acneiform was 19%.

What about the Diarrhea ([2]; All Grades) of the same molecule?
Its Diarrhea is 43%.

What about the Dry skin ([2]; All Grades) of the same molecule?
The Dry skin was 11%.

What about the Hemorrhage ([2]; All Grades) of the same molecule?
Its Hemorrhage is 13%.

And the Hypertension ([2]; All Grades)?
The Hypertension was 15%.

What about the Lymphedema ([2]; All Grades) of the same molecule?
The Lymphedema was 32%.

What about the Paronychia ([2]; All Grades) of the same molecule?
The Paronychia was 10%.

What about the Rash ([2]; All Grades) of the same molecule?
The Rash was 57%.

And the Abdominal pain ([2]; Grades 3 and 4)?
Its Abdominal pain is 1%.

And the Dermatitis acneiform ([2]; Grades 3 and 4)?
Its Dermatitis acneiform is less than 1%.

And the Diarrhea ([2]; Grades 3 and 4)?
Its Diarrhea is 0%.

And the Dry skin ([2]; Grades 3 and 4)?
The Dry skin was 0%.

What about the Hemorrhage ([2]; Grades 3 and 4) of the same molecule?
The Hemorrhage was less than 1%.

What about the Hypertension ([2]; Grades 3 and 4) of the same molecule?
Its Hypertension is 12%.

What about the Lymphedema ([2]; Grades 3 and 4) of the same molecule?
Its Lymphedema is 1%.

And the Paronychia ([2]; Grades 3 and 4)?
Its Paronychia is 0%.

What about the Rash ([2]; Grades 3 and 4) of the same molecule?
The Rash was 8%.

What about the Anemia ([2]; All Grades) of the same molecule?
The Anemia was 38%.

And the “Increased alanine aminotransferase (ALT)” value ([2]; All Grades)?
The value was 39%.

And the Increased alkaline phosphatase ([2]; All Grades)?
Its Increased alkaline phosphatase is 24%.

And the “Increased aspartate aminotransferase (AST)” value ([2]; All Grades)?
Its value is 60%.

And the Anemia ([2]; Grades 3 and 4)?
The Anemia was 2%.

And the “Increased alanine aminotransferase (ALT)” value ([2]; Grades 3 and 4)?
The value was 3%.

What about the Increased alkaline phosphatase ([2]; Grades 3 and 4) of the same molecule?
The Increased alkaline phosphatase was 2%.

What about the “Increased aspartate aminotransferase (AST)” value ([2]; Grades 3 and 4) of the same molecule?
The value was 2%.

And the “median onset of cardiomyopathy” value ([2]; range: 16 to 156 days)?
Its value is 63 days.

What about the “Grade 4 cardiac-related AEs” value ([3]; 2.0 mg monotherapy) of the same molecule?
Its value is “no subjects”.

And the “grade 3 cardiac-related AEs” value ([3]; 2.0 mg monotherapy)?
Its value is 18 subjects.

What about the “cases of RVO” value ([3]; entire trametinib program as of 23 June 2013) of the same molecule?
The value was “four cases”.
